US20190240291A1

Sequences of proteins named here, by UniProt entry; tags and fusion partners are left off. Residues count along the entry.
UniProt Q08351, 26-625: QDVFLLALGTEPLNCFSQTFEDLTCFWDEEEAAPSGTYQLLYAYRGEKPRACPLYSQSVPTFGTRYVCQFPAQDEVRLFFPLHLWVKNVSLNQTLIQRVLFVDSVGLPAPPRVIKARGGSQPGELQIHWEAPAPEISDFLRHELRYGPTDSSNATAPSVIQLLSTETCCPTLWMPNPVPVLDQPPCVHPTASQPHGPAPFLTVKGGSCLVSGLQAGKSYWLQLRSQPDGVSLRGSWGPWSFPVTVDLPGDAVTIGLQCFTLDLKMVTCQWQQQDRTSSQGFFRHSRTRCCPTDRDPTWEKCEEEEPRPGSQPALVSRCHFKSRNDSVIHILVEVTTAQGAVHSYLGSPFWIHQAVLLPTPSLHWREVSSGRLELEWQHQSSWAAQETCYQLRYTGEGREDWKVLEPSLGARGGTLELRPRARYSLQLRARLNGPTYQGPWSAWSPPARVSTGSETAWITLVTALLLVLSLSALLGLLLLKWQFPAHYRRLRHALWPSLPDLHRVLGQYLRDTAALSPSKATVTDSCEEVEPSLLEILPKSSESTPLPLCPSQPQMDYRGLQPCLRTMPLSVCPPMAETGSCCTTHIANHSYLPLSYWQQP

Target: TPO receptor, c-mpl (mouse (C57BL/6 cells)) (UniProt Q08351)
Assay: cell-based or functional assay

thrombopoietin (TPO) (ligand)
formation of mature OCs in vitro: < 5 fold
